The values below come from patent US8017350B2, “Glimepiride- and insulin-induced glycosylphosphatidylinositol-specific phospholipase C regulation” (Sanofi-Aventis Deutschland GmbH, priority 2004, dated 2011).

The target in experiment [1] is T1, GPI-PLC (T. brucei) (Trypanosoma brucei brucei, UniProt P09194).
T1 construct: purchased Oxford Glycosystems (Oxford, UK)
The experiment can be described thus: GPI-PLC (T. brucei) assay, human placental aP substrate, TX-114 partitioning. Type of experiment: biochemical. The procedure: (§1) GPI-PLD (rat serum) was assayed according to “Hari et al. (1997) Biochim. Biophys. Acta 1355: 293-302” by incubation with 10 μl of human placental aP solution (100 U/ml in 10 mM Hepes/NaOH, pH 7.0, 150 mM NaCl) in 100 μl of 200 mM Tris/maleate (pH 7.0) and 1% Nonidet P-40 for 10 min at 37° C. and subsequent termination of the reaction by addition of 0.4 ml of ice-cold stop buffer (10 mM Hepes/NaOH, pH 7.0, 150 mM NaCl, 0.1 mM MgCl2 and 0.01 mM zinc acetate). GPI-PLC (T. brucei) was assayed as described in “Mensa-Wilmot et al. (1995) Methods Enzymol. […]
(§2) Pelleted hc/lcDIGs (10-50 μg protein) or (G)PI-PLC reaction mixtures (0.5 ml) were separated into amphiphilic and hydrophilic proteins using partitioning between TX-114-enriched and depleted phases according to “Bordier, C., (1981) J. Biol, Chem. […]” by suspending in 1 ml of ice-cold TX-114 (1%), 25 mM Tris/HCl (pH 7.4), 144 mM NaCl or mixing with 0.5 ml of ice-cold TX-114 (2%), respectively. […] After re-extraction of the lower TX-114-enriched phase, aliquots of the pooled upper TX-114-depleted phase were measured for 5′-Nuc, aP and AChE activity or precipitated (15 polyethylene glycol 4000) for SDS-PAGE analysis. […]
(§3) FIG. 2: Potency of GPI-2350. […] The lipolytic activity was calculated as % of the control reaction in the absence of GPI-2350 (set at 100%). […]

Experiment [2] has as its target T2, PI-PLC (B. cereus) (Bacillus cereus, UniProt P14262).
T2 construct: purchased SigmalAldrich (Deisenhofen, Germany)
The experiment is described as follows: PI-PLC (B. cereus) assay, AChE substrate, TX-114 partitioning. Format: biochemical. The procedure: as §1, §2, §3

What is called IC50 is the midpoint of a concentration-inhibition curve. As usually defined, the inhibition is the drop in the measured response relative to a control, in per cent. As to `CCCCCCCCCCCCP(=O)(O)O[C@H]1[C@H](O)[C@@H](O)[C@H](O)[C@@H](O)[C@@H]1F` [GPI-1793, 2-deoxy-2-fluoro-scyllo-inositol-1-O-dodecyl-phosphonic acid], the values for the IC50 in experiment [1] and in experiment [2] were 25 to 35 µM and 110 to 140 µM, respectively. For the same molecule, the inhibition at 1000 µM in experiment [1] (read-out: inhibition % at 1 mM) was 89%; in experiment [2] (read-out: inhibition % at 1 mM) it was 70%.
